# Results from PubChem BioAssay (NCI).
# This is a selection; strong and weak results do not stand in their true shares. Active and inactive are the calls of the source. Rule as the data show it: active = growth inhibition above about 70%; inactive = the rest.
# Experiments:
# [1] = NCI Yeast Anticancer Drug Screen. Data for the rad50 strain (AID 155);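 also: 0% = growth of vehicle-only cultures of the same strain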; details: S. cerevisiae rad50 strain growth inhibition; at 50.0 µM; hits give high values
# [2] = NCI Yeast Anticancer Drug Screen. Data for the mec2-1 strain (AID 157); details: S. cerevisiae mec2-1 strain, at 50.0 µM, hits give high values
# [3] = NCI Yeast Anticancer Drug Screen. Data for the sgs1 mgt1 strain (AID 161);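 also: 0% = growth of cultures given vehicle only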; details: S. cerevisiae sgs1 mgt1 strain, at 50.0 µM, hits give high values
# [4] = NCI Yeast Anticancer Drug Screen. Data for the cln2 rad14 strain (AID 165);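 also: 0% = growth equal to vehicle treated cultures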; details: S. cerevisiae cln2 rad14 strain, at 50.0 µM, hits give high values
# [5] = NCI Yeast Anticancer Drug Screen. Data for the bub3 strain (AID 167); details: S. cerevisiae bub3 mutant strain, at 50.0 µM, hits give high values
# [6] = NCI Yeast Anticancer Drug Screen. Data for the mlh1 rad18 strain (AID 175); details: S. cerevisiae mlh1 rad18 strain growth inhibition; at 50.0 µM; hits give high values
SMILES,growth inhibition [1],growth inhibition [2],growth inhibition [3],growth inhibition [4],growth inhibition [5],growth inhibition [6]
CN(C)C(=O)Oc1ccc(/C=N/O)[n+](C)c1,inactive: -33%,inactive: -25.6%,inactive: -11%,inactive: 14.2%,inactive: -25.4%,inactive: -17.9%
CCCCCCCCCCCC(=O)OCC(COP(=O)(Oc1ccccc1)N(CCCl)CCCl)OC(=O)CCCCCCCCCCC (configuration not stated),inactive: 3.5%,inactive: -2.25%,inactive: -12.8%,inactive: -4.95%,inactive: -1.7%,inactive: -0.65%
COc1ccc(C2N=C(NN=C(CCl)CCl)SP2(=O)Nc2ncccn2)c(OC)c1 (configuration not stated),inactive: 14.2%,inactive: -6.65%,inactive: -6.5%,inactive: -35.2%,inactive: 17.2%,inactive: 9.85%
C/C(CCl)=N\NC1=NC(C)(CCl)P(=O)(Nc2ncn[nH]2)S1 (configuration not stated),inactive: -1.35%,inactive: -13.3%,inactive: -11.7%,inactive: 18.1%,inactive: -20.4%,inactive: -13.2%
CN(C)C(=O)Oc1ccc([N+](C)(C)C)cc1OC(=O)N(C)C,inactive: 0.35%,inactive: -1.05%,inactive: 0.55%,inactive: 6.95%,inactive: -0.85%,inactive: -20.6%
CN(C)CCC12CCCCC1CCc1ccccc12 (configuration not stated),inactive: 21.5%,inactive: 3.9%,inactive: 10%,inactive: 1.5%,inactive: -0.55%,inactive: 18.4%
CC1CC[P+](c2ccccc2)(c2ccccc2)c2c1ccc1ccccc21 (configuration not stated),active: 99%,active: 99.4%,active: 99.2%,active: 96.8%,active: 98.2%,active: 99.2%
ICCN(CCI)c1cccc2ccccc12,inactive: 5.6%,inactive: -0.1%,inactive: 0.05%,inactive: 33.7%,inactive: -0.1%,inactive: -13.6%
CCN(CCCl)Cc1ccccc1,inactive: 36.4%,inactive: -3.8%,inactive: 32.1%,inactive: 5.95%,inactive: -3.3%,inactive: 39.1%
CC[C@H](C)[C@@H]1NC(=O)/C(=C(\C)O)C1=O,inactive: 14.2%,inactive: 1.75%,inactive: 6.95%,inactive: 13.4%,inactive: 4.8%,inactive: -2.85%
[N-]=[N+]=NC(N)=O,inactive: -4.05%,inactive: -11.7%,inactive: -2.35%,inactive: -55.9%,inactive: -1.15%,inactive: -23.5%
O=P(NC(=S)Nc1ccccc1)(NC(=S)Nc1ccccc1)N(CCCl)CCCl,inactive: -15.4%,inactive: -1.65%,inactive: -16.2%,inactive: 39.9%,inactive: -1.1%,inactive: -3.55%
O=P1(N(CCCl)CCCl)Nc2ccccc2CO1 (configuration not stated),inactive: -4.7%,inactive: 33.5%,inactive: -0.95%,inactive: -8.6%,inactive: 31.5%,inactive: -5%
C[N+](CCBr)(CCBr)Cc1ccccc1[N+](=O)[O-],inactive: 3.3%,inactive: -13.8%,inactive: 4.35%,inactive: -27.4%,inactive: -8.2%,inactive: -0.65%
Cc1cccc(OP(=O)(Cl)Oc2cccc(C)c2)c1,inactive: -26.9%,inactive: -3.65%,inactive: 2.15%,inactive: -30.1%,inactive: 4.2%,inactive: -12.6%
O=C(CC(=O)c1ccccc1)OC1CN2CCC1CC2 (configuration not stated),inactive: 34.4%,inactive: 24.2%,inactive: -8.45%,inactive: 0.85%,inactive: 27.8%,inactive: 47.1%
CC(=O)N(CCCc1c(C)nc(N)[nH]c1=O)Cc1ccccn1,inactive: -4%,inactive: -15.9%,inactive: 2.6%,inactive: -33%,inactive: -5.5%,inactive: -5.4%
O=c1c2ccccc2c(=O)n2n1P(Cl)CP2Cl (configuration not stated),inactive: 5%,inactive: -4.6%,inactive: -4.7%,inactive: -5.5%,inactive: 7.2%,inactive: -12.5%
CCCCCCCNP(=S)(Cl)Cl,inactive: 6.35%,inactive: -7.05%,inactive: 5.95%,inactive: -3.7%,inactive: -1.35%,inactive: 39.4%
CCOP1(=O)N=C(NC2=NC(C(F)(F)F)(C(F)(F)F)OC(C(F)(F)F)(C(F)(F)F)O2)N(C)C1(C)C (configuration not stated),inactive: 3.4%,inactive: -12.1%,inactive: -4.45%,inactive: 12.6%,inactive: -8.25%,inactive: 3.7%
COc1cc(CCNCCCl)cc(OC)c1OC,inactive: 17.6%,inactive: -6.5%,inactive: -14.1%,inactive: -2.95%,inactive: 1%,inactive: 18.4%
CN(C)[P]=[Fe] (configuration not stated),inactive: -5.6%,inactive: 6.65%,inactive: 0.8%,inactive: -31.8%,inactive: 0.8%,inactive: -1.4%
CC(=O)OC[C@]12CC(=O)C(C)=C[C@H]1O[C@@H]1C(=O)[C@@H](OC(C)=O)[C@@]2(C)[C@@]12CO2,inactive: 25.9%,inactive: 24.7%,inactive: -6.35%,inactive: -1.15%,inactive: -24.7%,inactive: -30.4%
CN=C(/N=C1\N(C)C(C)(C)P(=O)(O)N1C)NC,inactive: -36%,inactive: -40.9%,inactive: -35.9%,inactive: 5.85%,inactive: 8.55%,inactive: -25.4%
O=[N+]([O-])c1ccc(Oc2cccc(Oc3ccc([N+](=O)[O-])cc3[N+](=O)[O-])c2)c([N+](=O)[O-])c1,inactive: 10.9%,inactive: -5.85%,inactive: 7.75%,inactive: -2.85%,inactive: 6.5%,inactive: 8.25%
O=C1C(C(Cl)(Cl)Cl)OC(C(Cl)(Cl)Cl)N1C(O)C(Cl)(Cl)Cl (configuration not stated),inactive: -11.1%,inactive: -17.8%,inactive: -6.7%,inactive: 5%,inactive: 8.75%,inactive: -18.1%
CCOP(=O)(NC(=S)NNC(=O)c1ccncc1)NC(=S)NNC(=O)c1ccncc1,inactive: 5.3%,inactive: 9.7%,inactive: 3.5%,inactive: 6.55%,inactive: -2.35%,inactive: -11.6%
